Reference: patent US11534434B2 (Karuna Therapeutics, Inc., priority 2019, dated 2022)
pEC50: −log10 of the molar value.

The chains behind the UniProt entries cited, without tags or fusion partners. Where a name states a change or a piece, a line headed by the entry shows the natural chain unless it says otherwise.
UniProt P11229: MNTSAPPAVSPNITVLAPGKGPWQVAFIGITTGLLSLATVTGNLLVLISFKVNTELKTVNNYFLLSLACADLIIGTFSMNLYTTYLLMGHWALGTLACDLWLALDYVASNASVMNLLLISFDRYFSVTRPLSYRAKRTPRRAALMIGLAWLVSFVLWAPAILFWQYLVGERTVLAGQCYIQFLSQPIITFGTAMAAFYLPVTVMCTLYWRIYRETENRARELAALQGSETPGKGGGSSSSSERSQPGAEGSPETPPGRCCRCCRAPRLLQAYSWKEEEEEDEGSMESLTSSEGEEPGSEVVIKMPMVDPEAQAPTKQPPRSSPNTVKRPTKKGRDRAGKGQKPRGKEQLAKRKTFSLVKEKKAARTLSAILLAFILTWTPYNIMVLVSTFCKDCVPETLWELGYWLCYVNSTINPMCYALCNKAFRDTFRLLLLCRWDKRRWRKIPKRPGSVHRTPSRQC
UniProt P08172, whole entry: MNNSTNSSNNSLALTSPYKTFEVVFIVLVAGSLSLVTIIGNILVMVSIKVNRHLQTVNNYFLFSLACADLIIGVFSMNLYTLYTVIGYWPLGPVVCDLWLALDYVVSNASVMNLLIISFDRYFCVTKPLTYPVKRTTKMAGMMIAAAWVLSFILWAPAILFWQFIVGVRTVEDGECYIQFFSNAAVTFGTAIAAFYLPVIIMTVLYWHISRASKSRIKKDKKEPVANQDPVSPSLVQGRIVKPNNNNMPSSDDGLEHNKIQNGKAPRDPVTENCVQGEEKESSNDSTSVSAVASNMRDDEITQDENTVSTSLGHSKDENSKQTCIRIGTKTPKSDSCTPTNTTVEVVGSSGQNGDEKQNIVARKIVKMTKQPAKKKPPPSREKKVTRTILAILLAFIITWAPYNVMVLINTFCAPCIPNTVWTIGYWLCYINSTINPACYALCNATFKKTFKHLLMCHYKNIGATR

Legend:
human M1 mAChR = molecular target: T1, human M1 mAChR (Homo sapiens, UniProt P11229); experiment: Whole-cell functional agonist activity, FLIPR Ca2+ release, U2OS-based human M1 mAChR stable cell line; details: top of curve, % activity vs MAX control ligand
T1 construct: expressed in transfected cells
Text: (§1) Whole-cell functional agonist activity in cells expressing recombinant human muscarinic receptor subtypes.
(§2) ThermoFisher's FLIPR™ (Fluorescence Imaging Plate Reader) was used to quantify Ca^2+ release, a functional effect associated with Gaq-coupled M1 and M5 mAChRs. CisBio's phospho-ERK (pERK) Thr202/Tyr204 was used to evaluate Gai/o-coupled M2 and M4 mAChRs responses.
One day before the assay, M1, M3, and M5 cells were thawed out and plated at 10,000 cells/well into black-walled, clear-bottom, Poly-D-lysine coated 384-well microplates and incubated at 37° C. and 5% CO2 in MEME+10% FBS+1× penicillin/streptomycin/glutamine, for the M1 and M3 cell lines and F-12+10% FBS+1× penicillin/streptomycin/glutamine for the M5 cell line. […] The M1 and M5 responses were analyzed using the CBIS data analysis suite (ChemInnovation, CA).
(§3) Percentage activity was calculated using the following formula: % Activity=100%×(mean RFU of test sample mean RFU of vehicle control)/(mean MAX RFU control ligand mean RFU of vehicle control) where RFU is relative fluorescence unit. The M2 and the M4 cells were thawed out one day before the assay and plated at 2,000 and 1,000 cells per well, respectively, in […] of DMEM/F12+10% FBS in ProxiPlate 384-well white-walled, white-bottom tissue culture-treated plates and incubated at 37° C. and 5% CO2 overnight. […]

human M2 mAChR = molecular target: T2, human M2 mAChR (Homo sapiens, UniProt P08172); experiment: Whole-cell functional agonist activity, phospho-ERK (pERK), CHOK1-based human M2 mAChR stable cell line; details: CHOK1 human M2 cells
T2 construct: expressed in transfected cells
Experimental: as §1, §2
as §3, with “overnight. Before the assay, cells were serum-starved at 37° C. in 5% CO2 for 4 hours by replacing culture media with […] of F12 media with 8 mM HEPES.” for “overnight.”
Compound addition was carried out by adding 3× compound solution in […] of media with 0.3% DMSO (made from a 10 mM compound stock solution in 100% DMSO) for 5 minutes before the reaction was terminated by adding […] lysis and blocking solution. […] The plates were then read on laser Pherastar using the TR-FRET protocol.

Emax (human M1 mAChR): 91%
pEC50 (human M2 mAChR): < 7.47
SMILES: CCCCCCOc1nsnc1C1=CCCN(C)C1 [Xanomeline, 3-(hexyloxy)-4-(1-methyl-1,2,5,6-tetrahydropyridin-3-yl)-1,2,5-thiadiazole, reference compound]
